Test [1] has as its system C2C12 cells. Nature of the test: Alkaline phosphatase (ALP) activity in C2C12 cells. Type of test: cell-based. As to conditions: BMP-2 100 ng/ml, 24 hours, FIG. 4a. The procedure:
(§1) C2C12 cells were plated in 24-well culture plates at density of 2×10^4 cells/well and incubated with DMEM supplemented with 10% FCS. 24 h later, C2C12 cells were transfected with empty vector, Smad1 or mutant Smurf1 expression plasmid using lipofactamine plus reagents (Gibco/BRL). Recombinant human BMP-2 (100 ng/ml) (R & D) was added next day and the cells were incubated for additional 24 hours. At the end of incubation, the medium was collected for osteocalcin assay and the cell lysates were extracted using 200 μl 0.05% Triton X-100 (freeze-thaw 3 times) and the ALP activity was measured using a Sigma ALP assay kit (Sigma Chemical co., St Louis) and protein content was measured using Bio-Rad protein assay reagents. The ALP activity was calculated using these two parameters.

In test [2] the test system is neonatal murine calvarial bones. Nature of the test: Organ culture of neonatal murine calvarial bones, bone formation. The class given is cell-based, ICR Swiss mice. As to conditions: 72 hours culture. The procedure:
Organ cultures of neonatal murine calvarial bones were used as described by Traianedes, K., et al., Endocrinology (1998) 139:3178-3184. Bones were removed from the calvaria of 4-5 day old ICR Swiss mice and cultured in BGJ medium with 0.1% BSA for 72 hours together with test compounds. Mouse noggin/FC chimera was purchased from R&D Systems, Stillwater, Minn., and added at 2 μg/ml. This is a high affinity binding protein for BMP-2, BMP-4 and BMP-7.
Neonatal murine calvariae were transfected with either empty vector or truncated Gli3 (trGli3) using lipofectamine plus reagents for the first 24 hours and then treated with epoxomicin (20 nM) for the remaining 3 days of the assay according to Traianedes, et al., 1998 (supra).

Test [3] has as its system C2C12 cells. Nature of the test: Osteocalcin production in C2C12 cells. Type of test: cell-based. As to conditions: BMP-2 100 ng/ml, 24 hours, FIG. 4b. How it is done:
as §1

The text below walks through data of patent US20030092603A1, “Identification of specific modulators of bone formation” (priority 2001, published 2003).

B1: BMP-2: bone morphogenic protein; Recombinant human BMP-2 (R & D) in Example 5 (protein, UniProt P12643 283-396, looked up)
Bone morphogenetic protein 2: QAKHKQRKRLKSSCKRHPLYVDFSDVGWNDWIVAPPGYHAFYCHGECPFPLADHLNSTNHAIVQTLVNSVNSKIPKACCVPTELSAISMLYLDENEKVVLKNYQDMVVEGCGCR
As to B1, the ALP activity entry in the test with C2C12 cells [1] is given as “increased”. For the same molecule, in test [2], the “bone formation in calvarial cultures” value was “bone stimulating effect”. The osteocalcin production entry in the test on C2C12 cells [3] was “increased”.
